The assay relates to Male mice (NMRI, Charles River). Nature of the assay: animal or person. To be noted: Mus musculus, po, 1 h, read-out: % reversal of PCP induced hyperactivity.

The values that follow come from patent US9018217B2, “Phenylimidazole derivatives as PDE10A enzyme inhibitors” (priority 2008, dated 2015).

For `Cc1ncc(C)n2nc(CCc3nc(-c4ccccc4)cn3C)nc12` [5,8-Dimethyl-2-[2-(1-methyl-4-phenyl-1H-imidazol-2-yl)-ethyl]-[1,2,4]triazolo[1,5-a]pyrazine], the inhibition in vivo at 5 mg/kg was 99%.
